Measured values as given in publication PMC10222646 (Microorganisms, 2023).

Legend:
[1] = test system: human cell lines (HepG2, HEK293, Caco-2, THP-1, macrophage); conditions: 100 μM AST, 48 h, HPLC-ICP-MS
HepG2 = test: MTT cytotoxicity assay, HepG2; conditions: read-out: LC50, HepG2, 72 h
THP-1 = test: MTT cytotoxicity assay, THP-1; conditions: read-out: LC50, THP-1, 72 h
Caco-2 = test: MTT cytotoxicity assay, Caco-2; conditions: read-out: LC50, Caco-2, 72 h
HEK293 = test: MTT cytotoxicity assay, HEK293; conditions: read-out: LC50, HEK293, 72 h

C[As](=O)(O)CC[C@H](N)C(=O)O [AST, 2-amino-4-(hydroxymethylarsinoyl)butanoate]
stability: arsenic species in culture media and cell lysates [1]: almost exclusively AST

Sodium (meta)arsenite
CC50 (HepG2): < 25 µM | CC50 (THP-1): < 25 µM | CC50 (Caco-2): < 25 µM | CC50 (HEK293): < 25 µM
